Literature values in patent US7452717B2 (dated 2008).

Test system: human carboxylesterase
Details: in patients; cited from earlier work

CCc1c2c(nc3ccc(OC(=O)N4CCC(N5CCCCC5)CC4)cc13)-c1cc3c(c(=O)n1C2)COC(=O)[C@]3(O)CC [CPT-11, 7-ethyl-10-[4-(1-piperidino)-1-piperidino]carbonyloxycamptothecin]
prodrug metabolized to SN-38: less than 5%
